Test results reported in patent publication US20200131196A1 (Mount Tam Therapeutics, Inc., priority 2017, published 2020).

Tests used:
[1] = molecular target: T1, TORC2 (Homo sapiens, UniProt P42345+P62942); assay: TORC2 inhibition in PC3 cells (Western blot, phospho Akt (S473)); assay type: cell-based
T1 construct: endogenous in cells; host or cells: PC3 cells
Description: (§1) Equal amounts of protein were resolved by SDS-PAGE and transferred to nitrocellulose membrane using the Invitrogen Nu-Page system. […] The following day, blots were washed 3 times in TBST, incubated for 2 hr with secondary antibodies (donkey anti rabbit hrp conjugated), and finally washed an additional 3 times in TBST. ECL Prime (Amersham) was used to detect the proteins of interest and ImageJ was used to quantify blots.

[2] = Pharmacokinetics in male Sprague Dawley rats (intravenous and oral); conditions: rat, in vivo
Description: Table 6 provides the pharmacokinetic parameters of Example (I) in male Sprague Dawley rats after a single bolus intravenous dose of 2 mg/kg. Table 7 provides the pharmacokinetic parameters of Example I in male Sprague Dawley rats after a single bolus oral dose of 10 mg/kg. In order to measure bioavailability in vivo, a compound may be administered to a test animal (e.g. mouse or rat) both intraperitoneally (i.p.) or intravenously (i.v.) and orally (p.o.) and blood samples are taken at regular intervals to examine how the plasma concentration of the drug varies over time. The time course of plasma concentration over time can be used to calculate the absolute bioavailability of the compound as a percentage using standard models. An example of a typical protocol is described below. […] These parameters are then analyzed by non-compartmental or compartmental methods to give a calculated percentage bioavailability, for an example of this type of method see Gallant-[…] et al, 2000 and […] et al, 1998, and references therein.

[3] = molecular target: T2, TORC1 (Homo sapiens, UniProt P42345+P62942); assay: TORC1 inhibition in PC3 cells (Western blot, phospho-rpS6); assay type: cell-based
T2 construct: endogenous in cells; host or cells: PC3 cells
Description: as §1

IC50 [1]: 11 nM
TORC1/TORC2 Selectivity [3]: 244x
IC50 ([3]; Western blot): 0.045 nM
Substance: C37-[(1S,2R,4S,5R)-5-hyhroxybicyclo[2.2.1]heptane] rapamycin [reference compound]
oral bioavailability [2]: about one-half to about one-quarter lower than 0.47
